The values below come from patent publication US10144715B2, “Piperazine derivatives as liver X receptor modulators” (priority 2014, dated 2018).

Protein sequences, listed by entry. Tags and fused reporters are not part of them. Residues count along the entry.
UniProt Q13133, 209-447: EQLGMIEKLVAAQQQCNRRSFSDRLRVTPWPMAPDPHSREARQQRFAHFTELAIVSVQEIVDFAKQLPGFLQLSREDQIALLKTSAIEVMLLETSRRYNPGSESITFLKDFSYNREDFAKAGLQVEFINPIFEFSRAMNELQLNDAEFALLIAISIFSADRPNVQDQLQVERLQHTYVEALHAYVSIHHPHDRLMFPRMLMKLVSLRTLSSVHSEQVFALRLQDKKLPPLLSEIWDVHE
UniProt P55055, 222-460 limits assumed: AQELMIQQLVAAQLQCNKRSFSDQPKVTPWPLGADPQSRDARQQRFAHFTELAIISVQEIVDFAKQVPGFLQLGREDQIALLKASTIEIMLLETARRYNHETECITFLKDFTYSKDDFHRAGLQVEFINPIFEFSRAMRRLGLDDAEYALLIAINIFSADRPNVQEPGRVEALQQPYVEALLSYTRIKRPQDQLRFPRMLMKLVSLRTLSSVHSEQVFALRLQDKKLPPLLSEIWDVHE

In test [1] the target is LXR α LBD protein (Homo sapiens (Human), UniProt Q13133). Description: LXR α radioligand binding assay (SPA, competition with [3H]TO901317). As to conditions: read-out: LXRα Binding Ki.
For test [2], the target named is T1, Gal4 DNA binding domain fused to the LBD of LXRα in HEK293 cells (Homo sapiens (Human), UniProt Q13133). Kind of test: LXR luciferase transcriptional reporter gene assay, antagonist mode (200 nM T0901317), LXRα. Type of test: cell-based. As to conditions: read-out: Cell LXRα IC50. (In a reporter assay the amount or activity of a reporter protein is the signal.)

Test [3] deals with T1, Gal4 DNA binding domain fused to the LBD of LXRα in HEK293 cells. Kind of test: LXR luciferase transcriptional reporter gene assay, agonist mode, LXRα. Type of test: cell-based. As to conditions: read-out: Cell LXRα EC50.
Test [4] concerns the target Gal4 DNA binding domain fused to the LBD of LXRβ in HEK293 cells (Homo sapiens (Human), UniProt P55055). Description: cell-based. As to conditions: Biological Test Example 2, agonist mode; read-out: Cell LXRβ EC50.
For test [5], the target named is LXR β LBD protein (Homo sapiens (Human), UniProt P55055). As to conditions: Biological Test Example 1; read-out: LXRβ Binding Ki.

Molecules are shown by their SMILES.

In general, Ki refers to the dissociation constant of the complex between target and ligand, obtained from inhibition or displacement. For orientation: IC50 means the concentration that gives 50% inhibition. As a reminder, the EC50 is the concentration needed to bring the measured effect to its halfway point. In the case of `CC(C)[C@@H]1CN(c2ccc(F)c(S(C)(=O)=O)c2)CCN1c1ncc(C(=O)N(C)C)c(C(F)(F)F)n1` [Cpd No 17-1, (R)-2-(4-(4-fluoro-3-(methylsulfonyl)phenyl)-2-isopropylpiperazin-1-yl)-N,N-dimethyl-4-(trifluoromethyl)pyrimidine-5-carboxamide], the Ki in test [1] was found to be 1120 nM. Besides, the IC50 in test [2] stood at 2350 nM. In test [3], the EC50 came to 6350 nM.

Consider `CC(C)[C@H]1CN(c2ccc(C#N)c(S(C)(=O)=O)c2)CCN1C[C@H]1CC[C@@H](C(F)(F)F)CC1` [Cpd No 50-1, 4-((S)-3-isopropyl-4-(((1s,4R)-4-(trifluoromethyl)cyclohexyl)methyl)piperazin-1-yl)-2-(methylsulfonyl)benzonitrile], for which the EC50 in test [4] was found to be 76 nM. Moreover, the Ki in test [5] was determined as 6 nM.
